Experimental data taken from patent US9163066B2, “Antimicrobial lytic peptides” (priority 2010, dated 2015).

Test system: red blood cells (erythrocytes)
Assay: Hemolytic activity of the peptides (hemoglobin release, absorbance at 412 nm)
Assay type: cell-based
Description: Hemolysis as defined herein is an in vitro assay where the compounds tendency to lyse red blood cells is determined. Presumably, the compounds that are less hemolytic will be less toxic in vivo. Increasing amounts of compound are added to solutions containing red blood cells and left for a specified time and then lysis is determined spectrophotometrically by measuring hemoglobin release.
A small volume of a suspension of erythrocytes (about 100 million) is kept on ice with a specific amount of lytic peptide. The cells are then placed in a 37° C. water bath for 10 min, vortexed and centrifuged at 1000 g for 2 min. The supernatant was removed and the amount of hemoglobin that was released was determined by the samples' absorbance at 412 nm. Control values without added peptide were subtracted from the absorbance readings.
The numerical difference between the value of the mean of hemolysis and the mean of the activity is a useful way to determine those peptides having the most desired activity.

Substance: Cecropin A
- Mean of Hemolysis: 1.1 µM
